Laboratory results reported in PMC3395220 (Journal of Medicinal Chemistry, 2012).

What was measured:
[1] = intravenous every two days; ref Literature data; cited from earlier work
Plasma pharmacokinetics = assay type: in vivo, CD-1 mice; details: mice, iv 1 mg/kg

Which “Maximum tolerated dose, IV repeated dose q2dx8” value [1] does the source give for mithramycin [Compound 1] here?
Its value is 0.6 mg/kg ^b.

And the plasma level (Plasma pharmacokinetics; after 5 min)?
Its plasma level is “approximately 2,7 μM”.

And the plasma level (Plasma pharmacokinetics; after 30 min)?
Its plasma level is “approximately 0,2 μM”.

And the plasma level (Plasma pharmacokinetics; after 120 min)?
The plasma level was “below 0,1 μM”.
